# Reference: paper PMC11558128 (Advanced Science, 2024)
# Protein sequences, listed by entry. Tags and fused reporters are not part of them. Chains listed by the source or under a name are the forms on record and can include a tag or linker.
# UniProt Q15858, other isoform, or with tags, fused parts or gaps: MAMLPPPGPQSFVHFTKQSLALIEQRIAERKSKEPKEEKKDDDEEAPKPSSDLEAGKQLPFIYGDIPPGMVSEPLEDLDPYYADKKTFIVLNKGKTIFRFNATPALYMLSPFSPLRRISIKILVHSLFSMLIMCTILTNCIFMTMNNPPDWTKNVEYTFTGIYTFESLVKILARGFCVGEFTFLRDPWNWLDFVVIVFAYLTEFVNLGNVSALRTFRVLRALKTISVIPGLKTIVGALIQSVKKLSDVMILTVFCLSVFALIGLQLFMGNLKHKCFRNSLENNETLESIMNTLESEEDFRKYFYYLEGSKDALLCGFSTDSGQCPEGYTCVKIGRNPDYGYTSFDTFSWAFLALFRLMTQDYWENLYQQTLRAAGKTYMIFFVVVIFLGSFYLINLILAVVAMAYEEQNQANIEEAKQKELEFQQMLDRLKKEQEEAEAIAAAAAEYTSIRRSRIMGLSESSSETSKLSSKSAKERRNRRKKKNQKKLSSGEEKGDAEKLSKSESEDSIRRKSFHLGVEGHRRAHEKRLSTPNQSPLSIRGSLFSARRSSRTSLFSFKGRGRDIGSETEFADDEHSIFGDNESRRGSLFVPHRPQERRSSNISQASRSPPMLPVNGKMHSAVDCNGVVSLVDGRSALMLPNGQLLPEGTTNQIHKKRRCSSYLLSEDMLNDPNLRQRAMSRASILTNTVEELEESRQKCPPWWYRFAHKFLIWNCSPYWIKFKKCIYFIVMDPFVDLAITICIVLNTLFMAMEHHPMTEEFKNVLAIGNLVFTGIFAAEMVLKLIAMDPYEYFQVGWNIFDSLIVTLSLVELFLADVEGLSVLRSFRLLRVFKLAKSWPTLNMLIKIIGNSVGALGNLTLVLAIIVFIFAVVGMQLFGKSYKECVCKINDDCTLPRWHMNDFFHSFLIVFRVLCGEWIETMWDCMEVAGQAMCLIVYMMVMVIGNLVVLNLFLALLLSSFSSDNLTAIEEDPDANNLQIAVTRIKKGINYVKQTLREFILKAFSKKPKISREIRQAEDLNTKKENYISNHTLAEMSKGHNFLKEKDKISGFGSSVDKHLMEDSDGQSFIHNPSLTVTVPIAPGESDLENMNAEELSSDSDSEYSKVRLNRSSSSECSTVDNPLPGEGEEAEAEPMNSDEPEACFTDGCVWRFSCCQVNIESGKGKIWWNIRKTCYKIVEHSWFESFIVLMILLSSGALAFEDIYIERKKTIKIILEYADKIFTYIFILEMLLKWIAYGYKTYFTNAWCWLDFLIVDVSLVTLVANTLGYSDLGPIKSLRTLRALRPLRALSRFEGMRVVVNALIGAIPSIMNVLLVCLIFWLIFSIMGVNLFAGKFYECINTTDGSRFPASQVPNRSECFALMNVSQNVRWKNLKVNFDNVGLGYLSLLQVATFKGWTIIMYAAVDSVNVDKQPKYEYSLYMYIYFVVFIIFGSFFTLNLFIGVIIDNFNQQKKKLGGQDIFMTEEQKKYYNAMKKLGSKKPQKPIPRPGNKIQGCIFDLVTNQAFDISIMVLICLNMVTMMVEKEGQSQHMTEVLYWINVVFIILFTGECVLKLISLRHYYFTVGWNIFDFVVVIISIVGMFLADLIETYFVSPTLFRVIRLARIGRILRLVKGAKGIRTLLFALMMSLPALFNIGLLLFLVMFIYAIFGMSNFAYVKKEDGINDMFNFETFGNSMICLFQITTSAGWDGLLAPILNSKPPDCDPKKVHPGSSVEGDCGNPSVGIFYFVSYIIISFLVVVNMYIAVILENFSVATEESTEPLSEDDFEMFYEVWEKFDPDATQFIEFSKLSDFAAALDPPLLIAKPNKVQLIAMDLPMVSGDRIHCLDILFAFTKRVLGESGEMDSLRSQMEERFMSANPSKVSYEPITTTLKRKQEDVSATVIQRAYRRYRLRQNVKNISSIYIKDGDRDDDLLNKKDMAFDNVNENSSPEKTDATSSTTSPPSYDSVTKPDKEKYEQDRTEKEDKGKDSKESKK
# Positions count from the first letter of the chain named.
# Assays:
# Experiment in all cases: cell-based
# [1] = target: T1, hNav1.7 (Homo sapiens, UniProt Q15858); settings: IC50 for hNav1.7; SEM
# T1 construct: expressed in transfected cells; host or cells: HEK293T
# [2] = target: T2, rKv4.3 (Rattus norvegicus, UniProt Q62897); settings: SEM
# T2 construct: expressed in transfected cells; host or cells: HEK293T
# T2 sequence (Q62897 1-655): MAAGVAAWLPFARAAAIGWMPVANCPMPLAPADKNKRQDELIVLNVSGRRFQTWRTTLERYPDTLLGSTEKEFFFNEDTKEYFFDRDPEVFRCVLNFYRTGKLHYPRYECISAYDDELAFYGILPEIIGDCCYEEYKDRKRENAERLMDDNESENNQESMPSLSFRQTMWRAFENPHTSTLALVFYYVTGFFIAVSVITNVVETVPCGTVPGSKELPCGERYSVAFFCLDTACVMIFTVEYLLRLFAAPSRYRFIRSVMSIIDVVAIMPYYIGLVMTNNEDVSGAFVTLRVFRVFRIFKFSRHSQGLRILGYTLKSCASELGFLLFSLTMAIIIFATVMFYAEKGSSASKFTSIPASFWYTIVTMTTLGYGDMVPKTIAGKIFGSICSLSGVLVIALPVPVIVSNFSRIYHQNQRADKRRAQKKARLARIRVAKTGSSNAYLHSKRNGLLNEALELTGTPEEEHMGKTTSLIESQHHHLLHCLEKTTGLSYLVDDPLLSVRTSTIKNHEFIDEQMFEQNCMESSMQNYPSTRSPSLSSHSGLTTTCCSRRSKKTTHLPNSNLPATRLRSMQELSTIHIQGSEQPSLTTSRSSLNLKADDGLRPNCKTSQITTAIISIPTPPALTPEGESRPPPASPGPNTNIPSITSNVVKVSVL
# [3] = target: T3, rKv4.2 M279A (Rattus norvegicus, UniProt Q63881, M279A); settings: SEM
# T3 construct: expressed in transfected cells; host or cells: HEK293T
# T3 sequence (Q63881 1-630 M279A): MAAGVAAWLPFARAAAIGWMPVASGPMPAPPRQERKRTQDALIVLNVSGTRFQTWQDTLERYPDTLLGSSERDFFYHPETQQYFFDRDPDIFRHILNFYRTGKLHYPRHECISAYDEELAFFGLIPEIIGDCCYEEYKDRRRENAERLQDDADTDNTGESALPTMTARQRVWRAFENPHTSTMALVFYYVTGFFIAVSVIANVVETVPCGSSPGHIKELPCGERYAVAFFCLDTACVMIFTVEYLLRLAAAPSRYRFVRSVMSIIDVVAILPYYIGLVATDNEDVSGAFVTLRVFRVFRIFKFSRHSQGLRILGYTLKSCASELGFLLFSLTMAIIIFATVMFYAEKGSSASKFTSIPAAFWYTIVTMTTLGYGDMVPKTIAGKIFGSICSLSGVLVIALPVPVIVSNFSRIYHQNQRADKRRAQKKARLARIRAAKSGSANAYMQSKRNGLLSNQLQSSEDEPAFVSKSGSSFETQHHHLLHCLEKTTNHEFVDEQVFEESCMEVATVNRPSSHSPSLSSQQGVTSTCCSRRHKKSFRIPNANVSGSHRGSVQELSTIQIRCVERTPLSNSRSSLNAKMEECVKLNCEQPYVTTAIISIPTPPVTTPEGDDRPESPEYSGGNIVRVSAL
# [4] = target: T4, rKv4.2 T280A (Rattus norvegicus, UniProt Q63881, T280A); settings: SEM
# T4 construct: expressed in transfected cells; host or cells: HEK293T
# T4 sequence (Q63881 1-630 T280A): T3 sequence (Q63881 1-630 M279A) with A279M, T280A
# [5] = target: T5, rKv4.2 N282A (Rattus norvegicus, UniProt Q63881, N282A); settings: SEM
# T5 construct: expressed in transfected cells; host or cells: HEK293T
# T5 sequence (Q63881 1-630 N282A): T3 sequence (Q63881 1-630 M279A) with A279M, N282A
smiles,measurement,setting,value
CC[C@H](C)[C@H](NC(=O)[C@H](CCCCN)NC(=O)[C@H](Cc1ccc(O)cc1)NC(=O)[C@H](CCCCN)NC(=O)[C@@H]1CSSC[C@@H]2NC(=O)[C@H](CCC(=O)O)NC(=O)[C@H](CC(=O)O)NC(=O)[C@H](CCCCN)NC(=O)CNC(=O)[C@@H]3CCCN3C(=O)[C@H]([C@@H](C)O)NC(=O)[C@@H]3CSSC[C@H](NC(=O)[C@H](C(C)C)NC(=O)[C@H](Cc4c[nH]cn4)NC(=O)[C@H](CC(N)=O)NC(=O)[C@@H]4CCCN4C(=O)[C@H](CSSC[C@H](NC(=O)[C@H](C)N)C(=O)N[C@@H](CCCCN)C(=O)NCC(=O)N[C@@H]([C@@H](C)CC)C(=O)N[C@@H](Cc4ccccc4)C(=O)N[C@@H](C(C)C)C(=O)N[C@@H]([C@@H](C)O)C(=O)N3)NC2=O)C(=O)N[C@@H](CO)C(=O)N[C@@H](CO)C(=O)N[C@@H](CCCCN)C(=O)N[C@@H](Cc2c[nH]cn2)C(=O)N[C@@H](CCCCN)C(=O)N[C@@H](Cc2c[nH]c3ccccc23)C(=O)N1)C(N)=O [Cl6b],IC50,[1],76.9 ± 4.1 nM
same,IC50,[2],82.5 ± 11.1 nM
same,IC50,[3],309 ± 126 nM
same,IC50,[4],11 ± 1 nM
same,IC50,[5],3 ± 1 nM
